Results on 5 molecules are retold here after patent publication US8507447, “Treatments of gastrointestinal disorders” (dated 2013).

The target of one series is T1, Peptide 1.
T1 chain: CCSLCCNPACTGCY

For the next series, the target named is T2, Peptide 2.
T2 chain: CCSLCCNPACTGC

The target of a further series is T3, Peptide 3.
T3 chain: CCELCCNPACTGCY

In series [1] the target is Guanylate cyclase C (human), P25092. The series can be described thus: cell-based or functional assay.

B1: Calf intestinal alkaline phosphatase (protein)
chain: LVPVEEEDPAFWNRQAAQALDVAKKLQPIQTAAKNVILFLGDGMGVPTVTATRILKGQMNGKLGPETPLAMDQFPYVALSKTYNVDRQVPDSAGTATAYLCGVKGNYRTIGVSAAARYNQCKTTRGNEVTSVMNRAKKAGKSVGVVTTTRVQHASPAGAYAHTVNRNWYSDADLPADAQMNGCQDIAAQLVNNMDIDVILGGGRKYMFPVGTPDPEYPDDASVNGVRKRKQNLVQAWQAKHQGAQYVWNRTALLQAADDSSVTHLMGLFEPADMKYNVQQDHTKDPTLQEMTEVALRVVSRNPRGFYLFVEGGRIDHGHHDDKAYMALTEAGMFDNAIAKANELTSELDTLILVTADHSHVFSFGGYTLRGTSIFGLAPSKALDSKSYTSILYGNGPGYALGGGSRPDVNDSTSEDPSYQQQAAVPQASETHGGEDVAVFARGPQAHLVHGVEEETFVAHIMAFAGCVEPYTDCNLPAPTTATSIPD
On to B1, for which, in the series with Peptide 1, the Dephosphorylation of Peptide 1, Dephospho (%), alkaline phosphatase pH 8 worked out at 100%. Moreover, in the series with Peptide 2, the Dephosphorylation of Peptide 2, Dephospho (%), alkaline phosphatase pH 8 stood at 100% and the Dephosphorylation of Peptide 2, Remaining (%), alkaline phosphatase pH 8 worked out at 0%. The “LC-MS of reactions with and without calf intestinal alkaline phosphatase” value in the series with Peptide 3 was “Peptide 3 was not affected by CIP treatment (data not shown)”. Turning to DDCCSLCCNPACTGCY (modifications not checked) [Peptide 5], in series [1], the cGMP response of T84 cells, EC50 at pH 5 came to 14.7 nM. In turn, CCSLCCNPACTGCY (modifications not checked) [Dephospho-Peptide 1] registered a cGMP response of T84 cells, EC50 at pH 5 (nM) in series [1] of 128 nM. For DDCCSYCCNPACTGCY (modifications not checked) [Peptide 6], the cGMP response of T84 cells, EC50 at pH 5 in series [1] came to 39.2 nM.

In series [1], CCSLCCNPACTGC (modifications not checked) [Dephospho-Peptide 2] gave a cGMP response of T84 cells, EC50 at pH 5 (nM) of 78.1 nM.
